From patent US20250034169A1, “NOVEL PYRIMIDOPYRIDINE COMPOUND, PHARMACEUTICAL COMPOSITION THEREOF, AND USE THEREOF” (SUNSHINE LAKE PHARMA CO., LTD., priority 2021, published 2025)

Tested on: intracellular pERK
Test: Inhibitory effect on intracellular pERK, In-Cell Western, AGS cells
Type: cell-based
Settings: read-out: Inhibitory effect on intracellular pERK, IC50, 3 h incubation
Excerpt: […]

## C#Cc1c(F)ccc2cc(O)cc(-c3nc(C#C)c4c(N5CC6CCC(C5)N6)nc(OCC56CCCN5CC(F)C6)nc4c3F)c12 (stereo not shown)
  IC50: 0.6 nM
